Test results: ChEMBL document CHEMBL5291721, “A preclinical secondary pharmacology resource illuminates target-adverse drug reaction associations of marketed drugs” (Nat Commun, 2023)

Protein sequences, listed by entry. Tags and fused reporters are not part of them.
UniProt P08588, whole entry: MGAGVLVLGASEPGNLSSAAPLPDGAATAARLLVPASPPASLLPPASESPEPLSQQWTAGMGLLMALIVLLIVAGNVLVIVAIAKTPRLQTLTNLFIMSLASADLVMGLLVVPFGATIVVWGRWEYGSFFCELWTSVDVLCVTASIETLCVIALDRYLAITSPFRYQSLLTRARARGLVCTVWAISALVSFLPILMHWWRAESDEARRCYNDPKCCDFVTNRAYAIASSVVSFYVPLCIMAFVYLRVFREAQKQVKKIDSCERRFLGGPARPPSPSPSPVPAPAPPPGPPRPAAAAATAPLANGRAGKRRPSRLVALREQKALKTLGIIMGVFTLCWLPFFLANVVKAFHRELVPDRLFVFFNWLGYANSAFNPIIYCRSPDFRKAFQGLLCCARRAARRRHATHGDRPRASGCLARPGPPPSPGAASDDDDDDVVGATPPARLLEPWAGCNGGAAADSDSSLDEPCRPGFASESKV
UniProt Q01959, whole entry: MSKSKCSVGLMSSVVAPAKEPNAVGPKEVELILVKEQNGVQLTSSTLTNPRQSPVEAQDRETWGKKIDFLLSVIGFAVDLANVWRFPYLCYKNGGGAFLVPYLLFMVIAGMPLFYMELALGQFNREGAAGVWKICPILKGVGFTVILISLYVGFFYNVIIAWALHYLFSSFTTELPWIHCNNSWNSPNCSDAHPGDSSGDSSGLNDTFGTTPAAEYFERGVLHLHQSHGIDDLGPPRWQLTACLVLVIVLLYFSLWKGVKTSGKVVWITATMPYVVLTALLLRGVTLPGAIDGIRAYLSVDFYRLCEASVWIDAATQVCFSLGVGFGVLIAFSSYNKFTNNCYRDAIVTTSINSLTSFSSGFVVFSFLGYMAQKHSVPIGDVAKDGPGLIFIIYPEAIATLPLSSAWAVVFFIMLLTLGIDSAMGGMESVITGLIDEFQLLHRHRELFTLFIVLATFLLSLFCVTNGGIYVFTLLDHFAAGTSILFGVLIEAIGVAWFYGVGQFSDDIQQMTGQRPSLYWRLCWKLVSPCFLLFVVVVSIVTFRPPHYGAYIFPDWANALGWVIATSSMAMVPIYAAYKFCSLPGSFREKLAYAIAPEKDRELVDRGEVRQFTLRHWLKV
UniProt P31645, whole entry: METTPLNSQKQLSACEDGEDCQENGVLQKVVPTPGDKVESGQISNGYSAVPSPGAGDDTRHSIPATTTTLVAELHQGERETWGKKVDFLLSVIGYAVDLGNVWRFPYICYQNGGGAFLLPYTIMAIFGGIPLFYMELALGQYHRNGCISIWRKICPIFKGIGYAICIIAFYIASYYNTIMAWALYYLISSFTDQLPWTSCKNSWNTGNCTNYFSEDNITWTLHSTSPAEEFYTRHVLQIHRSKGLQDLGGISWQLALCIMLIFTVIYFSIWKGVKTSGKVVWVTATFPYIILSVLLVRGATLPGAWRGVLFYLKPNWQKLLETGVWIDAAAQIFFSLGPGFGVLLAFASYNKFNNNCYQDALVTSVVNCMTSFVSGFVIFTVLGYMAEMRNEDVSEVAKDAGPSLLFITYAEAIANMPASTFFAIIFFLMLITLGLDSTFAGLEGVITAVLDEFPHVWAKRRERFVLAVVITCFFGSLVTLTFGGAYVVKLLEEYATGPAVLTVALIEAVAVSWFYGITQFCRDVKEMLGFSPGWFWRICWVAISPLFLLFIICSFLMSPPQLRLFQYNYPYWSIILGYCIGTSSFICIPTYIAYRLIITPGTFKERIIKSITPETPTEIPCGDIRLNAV
UniProt P23975, whole entry: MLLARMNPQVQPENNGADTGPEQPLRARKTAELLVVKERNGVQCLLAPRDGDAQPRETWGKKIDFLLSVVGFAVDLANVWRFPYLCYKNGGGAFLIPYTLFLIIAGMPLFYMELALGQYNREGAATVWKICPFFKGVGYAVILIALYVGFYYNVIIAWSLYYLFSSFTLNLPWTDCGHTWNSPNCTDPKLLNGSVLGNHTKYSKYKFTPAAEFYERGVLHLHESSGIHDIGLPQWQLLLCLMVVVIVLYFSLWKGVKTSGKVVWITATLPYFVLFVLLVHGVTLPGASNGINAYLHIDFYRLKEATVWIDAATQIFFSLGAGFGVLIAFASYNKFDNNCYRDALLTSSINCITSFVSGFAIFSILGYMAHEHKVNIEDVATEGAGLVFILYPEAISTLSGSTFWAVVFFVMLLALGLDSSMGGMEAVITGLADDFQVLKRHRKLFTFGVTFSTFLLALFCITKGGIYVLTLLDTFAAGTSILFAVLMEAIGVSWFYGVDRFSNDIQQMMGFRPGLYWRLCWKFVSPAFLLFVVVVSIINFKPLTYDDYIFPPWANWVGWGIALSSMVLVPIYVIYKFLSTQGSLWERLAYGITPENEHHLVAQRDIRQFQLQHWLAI
UniProt P07550, whole entry: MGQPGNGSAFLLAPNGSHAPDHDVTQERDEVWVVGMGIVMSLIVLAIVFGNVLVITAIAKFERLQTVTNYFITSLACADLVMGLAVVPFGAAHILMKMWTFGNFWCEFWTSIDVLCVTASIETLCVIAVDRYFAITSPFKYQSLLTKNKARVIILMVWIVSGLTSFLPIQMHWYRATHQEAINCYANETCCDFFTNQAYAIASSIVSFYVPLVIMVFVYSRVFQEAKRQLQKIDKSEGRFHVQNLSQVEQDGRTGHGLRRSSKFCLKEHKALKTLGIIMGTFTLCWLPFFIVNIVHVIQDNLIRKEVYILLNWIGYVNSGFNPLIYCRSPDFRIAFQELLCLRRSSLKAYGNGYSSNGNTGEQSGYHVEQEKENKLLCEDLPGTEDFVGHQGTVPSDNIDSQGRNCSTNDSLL

Columns and labels:
[1] = target: Beta-1 adrenergic receptor (Homo sapiens, UniProt P08588); format: functional
[2] = target: Sodium-dependent dopamine transporter (Homo sapiens, UniProt Q01959)
[3] = target: Sodium-dependent serotonin transporter (Homo sapiens, UniProt P31645)
[4] = target: Sodium-dependent noradrenaline transporter (Homo sapiens, UniProt P23975)
[5] = target: Beta-2 adrenergic receptor (Homo sapiens, UniProt P07550); format: functional, cell-based
Also: assay procedure not described here.

SMILES: CC(C)NCC(O)c1ccc(NS(C)(=O)=O)cc1 (stereo not given) [SOTALOL]
- AC50 [1]: 3.9 µM

SMILES: CN(C)CC(c1ccc(O)cc1)C1(O)CCCCC1 (stereo not given) [DESVENLAFAXINE]
- AC50 [2]: 26.5 µM
- AC50 [3]: 0.0448 µM
- AC50 [4]: 12.1 µM

SMILES: OCc1cc([C@@H](O)CNCCCCCCOCCOCc2c(Cl)cccc2Cl)ccc1O [VILANTEROL]
- AC50 [5]: 0.0058 µM
